Results on 2 compounds are retold here after patent US6506876B1, “LTA4 hydrolase inhibitor pharmaceutical compositions and methods of use” (G.D. Searle & Co., priority 1994, dated 2003).

pIC50: −log10 of the molar value.

The subject of test [1] is LTB4 production in human whole blood (LTA4 hydrolase). The test can be described thus: LTB4 production by calcium ionophore stimulated human blood. It is filed as cell-based. Conditions: Homo sapiens, read-out: Inhibition of Calcium Ionophore-Induced LTB4 Production in Human Blood IC50 HWB.
Test [2] has as its target T1, recombinant human LTA4 hydrolase (rhLTA4H) (Homo sapiens, UniProt P09960).
T1 sequence (P09960 1-611): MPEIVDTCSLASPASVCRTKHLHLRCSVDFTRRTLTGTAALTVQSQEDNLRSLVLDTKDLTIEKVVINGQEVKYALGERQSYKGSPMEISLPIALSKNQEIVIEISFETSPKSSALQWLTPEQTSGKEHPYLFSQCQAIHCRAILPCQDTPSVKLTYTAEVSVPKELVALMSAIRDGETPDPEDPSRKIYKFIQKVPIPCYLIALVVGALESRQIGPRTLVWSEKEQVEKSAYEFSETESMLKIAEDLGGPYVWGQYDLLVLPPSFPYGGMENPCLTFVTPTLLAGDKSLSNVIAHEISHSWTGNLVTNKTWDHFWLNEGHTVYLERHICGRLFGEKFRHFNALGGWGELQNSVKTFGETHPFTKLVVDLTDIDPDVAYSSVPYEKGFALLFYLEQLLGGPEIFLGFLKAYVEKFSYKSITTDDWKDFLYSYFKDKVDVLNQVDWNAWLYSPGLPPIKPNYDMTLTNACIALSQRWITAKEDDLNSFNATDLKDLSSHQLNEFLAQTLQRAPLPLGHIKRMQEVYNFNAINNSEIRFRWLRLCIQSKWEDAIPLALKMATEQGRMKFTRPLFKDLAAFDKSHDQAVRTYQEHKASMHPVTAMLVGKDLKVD
The test can be described thus: Recombinant human LTA4 hydrolase assay for LTA4 hydrolase inhibitor activity. Conditions: Recombinant Human LTA4 Hydrolase Assay IC50 LTA4H.

Take `[O-][n+]1ccc2c(c1)ncn2CCOc1ccc(Cc2ccccc2)cc1` [Example 365]: the pIC50 in test [1] was 6.47.

For the compound `CN(CCCOc1ccc(Cc2ccccc2)cc1)CCC(=O)O` [Example 434], in test [2], the pIC50 was 8.00.

Usually pIC50 stands for the negative decadic logarithm of the IC50, by convention in mol/L.
